Target: T1, caspase-3 (Homo sapiens, UniProt P42574)
T1 sequence (P42574 29-175 limits assumed): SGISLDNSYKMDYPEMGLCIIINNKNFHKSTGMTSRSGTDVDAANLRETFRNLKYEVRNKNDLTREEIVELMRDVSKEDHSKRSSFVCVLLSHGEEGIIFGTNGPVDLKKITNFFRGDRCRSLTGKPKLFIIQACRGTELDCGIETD
T1 sequence (P42574 176-277 limits assumed): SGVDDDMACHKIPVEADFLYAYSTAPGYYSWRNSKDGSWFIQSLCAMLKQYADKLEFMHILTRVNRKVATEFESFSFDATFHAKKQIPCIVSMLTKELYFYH
Test: caspase-3 cleavage of PPC tested by HPLC
Assay type: biochemical
Settings: PPC + caspase-3 + inhibitor

block of caspase-3 cleavage of PPC by inhibitor: completely blocked the enzyme activity
Substance: Ac-DEVD-CHO

Source: patent publication US8133482B2, “Activatable photodynamic therapy agents” (The Trustees of the University of Pennsylvania, priority 2003, dated 2012)
